Earlier results as cited in patent publication US20090304869A1, “Peptides Having an Ace Inhibiting Effect” (priority 2005, published 2009).

Protein sequences, listed by entry. Tags and fused reporters are not part of them. Residues count along the entry.
UniProt P12821, 30-1306 limits assumed: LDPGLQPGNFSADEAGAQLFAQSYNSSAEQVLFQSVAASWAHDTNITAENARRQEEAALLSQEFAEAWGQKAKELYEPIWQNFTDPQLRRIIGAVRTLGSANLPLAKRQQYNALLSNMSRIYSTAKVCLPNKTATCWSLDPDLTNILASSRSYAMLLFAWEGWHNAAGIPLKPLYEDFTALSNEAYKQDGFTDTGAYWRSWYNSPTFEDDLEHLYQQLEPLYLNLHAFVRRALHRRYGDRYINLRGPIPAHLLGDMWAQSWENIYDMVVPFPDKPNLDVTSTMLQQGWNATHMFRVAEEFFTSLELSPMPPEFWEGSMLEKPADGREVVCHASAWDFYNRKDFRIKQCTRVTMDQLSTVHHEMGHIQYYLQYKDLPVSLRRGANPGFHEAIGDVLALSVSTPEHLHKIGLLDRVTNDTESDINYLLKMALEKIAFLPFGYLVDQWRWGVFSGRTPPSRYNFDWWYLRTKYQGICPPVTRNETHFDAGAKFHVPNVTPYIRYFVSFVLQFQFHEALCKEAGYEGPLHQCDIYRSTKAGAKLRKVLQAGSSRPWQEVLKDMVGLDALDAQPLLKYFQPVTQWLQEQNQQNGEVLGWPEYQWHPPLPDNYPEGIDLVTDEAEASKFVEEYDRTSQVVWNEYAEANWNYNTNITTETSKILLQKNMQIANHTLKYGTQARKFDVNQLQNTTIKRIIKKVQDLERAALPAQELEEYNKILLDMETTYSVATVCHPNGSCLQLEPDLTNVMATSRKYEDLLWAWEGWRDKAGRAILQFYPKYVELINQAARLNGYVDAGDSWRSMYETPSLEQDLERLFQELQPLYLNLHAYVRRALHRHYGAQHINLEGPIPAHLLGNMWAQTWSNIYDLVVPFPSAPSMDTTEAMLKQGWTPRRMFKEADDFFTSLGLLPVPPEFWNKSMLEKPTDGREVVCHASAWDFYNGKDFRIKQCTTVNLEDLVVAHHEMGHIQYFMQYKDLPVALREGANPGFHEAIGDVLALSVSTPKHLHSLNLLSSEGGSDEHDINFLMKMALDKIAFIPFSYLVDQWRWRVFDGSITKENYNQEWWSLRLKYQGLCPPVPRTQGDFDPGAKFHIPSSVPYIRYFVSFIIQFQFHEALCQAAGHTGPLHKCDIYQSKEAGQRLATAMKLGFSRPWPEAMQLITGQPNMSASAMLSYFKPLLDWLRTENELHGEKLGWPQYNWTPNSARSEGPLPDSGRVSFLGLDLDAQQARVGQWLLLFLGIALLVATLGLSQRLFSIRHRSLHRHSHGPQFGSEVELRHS

Target: ACE (Homo sapiens, UniProt P12821)
Details: read-out: IC50 values reported earlier as ACEI peptides; literature

IC50: 9.6 µM
SMILES: CC(C)C[C@H](N)C(=O)N1CCC[C@H]1C(=O)N1CCC[C@H]1C(=O)O
